Sequences of proteins named here, by UniProt entry; tags and fusion partners are left off. Residues count along the entry.
UniProt P23219, 24-599: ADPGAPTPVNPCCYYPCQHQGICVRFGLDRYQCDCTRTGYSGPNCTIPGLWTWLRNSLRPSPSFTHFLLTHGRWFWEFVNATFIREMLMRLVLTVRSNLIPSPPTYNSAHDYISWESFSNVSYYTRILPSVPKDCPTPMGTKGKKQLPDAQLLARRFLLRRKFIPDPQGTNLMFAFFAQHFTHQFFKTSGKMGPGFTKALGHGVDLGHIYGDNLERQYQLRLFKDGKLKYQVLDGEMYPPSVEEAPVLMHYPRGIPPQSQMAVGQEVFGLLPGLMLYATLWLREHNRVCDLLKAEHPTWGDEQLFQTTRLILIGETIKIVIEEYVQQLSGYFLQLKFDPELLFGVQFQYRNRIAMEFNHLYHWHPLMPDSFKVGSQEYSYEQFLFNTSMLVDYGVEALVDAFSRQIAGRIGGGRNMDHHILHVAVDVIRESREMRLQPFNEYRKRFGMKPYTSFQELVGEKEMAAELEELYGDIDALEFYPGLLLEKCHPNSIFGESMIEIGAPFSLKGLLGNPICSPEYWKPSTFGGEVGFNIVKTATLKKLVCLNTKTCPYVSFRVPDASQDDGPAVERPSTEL

In patent publication US20080253976A1, “Personal Care Compositions Comprising An Antimicrobial Blend of Essential Oils or Constituents Thereof” (priority 2007, published 2008):

Molecular target: COX-1 (Homo sapiens, UniProt P23219)
Test: Inhibition of host inflammation factor COX-1
Assay type: biochemical
Details: read-out: COX-1 % inhibition

Cc1ccc(C(C)C)cc1O [Carvacrol]
inhibition at 200 µM: > 50%

C=CCc1ccc(O)c(OC)c1 [Eugenol]
inhibition at 200 µM: > 25%
